US12617785B2, “Pyrrolo[2,3-b]pyridine-3-carboxamide compositions and methods for ameliorating hearing loss” (priority 2020, dated 2026)

Tests used:
Lats1 [1] = target: T1, Lats1 (Homo sapiens, UniProt O95835); assay: In vitro kinase assay (HTRF KinEASE-STK S1) Lats1, 10 uM ATP; format: biochemical; settings: read-out: LATS1_HTRF_10 uM ATP IC50
T1 construct: purchased Carna 01-123
T1 sequence (O95835 1-1130): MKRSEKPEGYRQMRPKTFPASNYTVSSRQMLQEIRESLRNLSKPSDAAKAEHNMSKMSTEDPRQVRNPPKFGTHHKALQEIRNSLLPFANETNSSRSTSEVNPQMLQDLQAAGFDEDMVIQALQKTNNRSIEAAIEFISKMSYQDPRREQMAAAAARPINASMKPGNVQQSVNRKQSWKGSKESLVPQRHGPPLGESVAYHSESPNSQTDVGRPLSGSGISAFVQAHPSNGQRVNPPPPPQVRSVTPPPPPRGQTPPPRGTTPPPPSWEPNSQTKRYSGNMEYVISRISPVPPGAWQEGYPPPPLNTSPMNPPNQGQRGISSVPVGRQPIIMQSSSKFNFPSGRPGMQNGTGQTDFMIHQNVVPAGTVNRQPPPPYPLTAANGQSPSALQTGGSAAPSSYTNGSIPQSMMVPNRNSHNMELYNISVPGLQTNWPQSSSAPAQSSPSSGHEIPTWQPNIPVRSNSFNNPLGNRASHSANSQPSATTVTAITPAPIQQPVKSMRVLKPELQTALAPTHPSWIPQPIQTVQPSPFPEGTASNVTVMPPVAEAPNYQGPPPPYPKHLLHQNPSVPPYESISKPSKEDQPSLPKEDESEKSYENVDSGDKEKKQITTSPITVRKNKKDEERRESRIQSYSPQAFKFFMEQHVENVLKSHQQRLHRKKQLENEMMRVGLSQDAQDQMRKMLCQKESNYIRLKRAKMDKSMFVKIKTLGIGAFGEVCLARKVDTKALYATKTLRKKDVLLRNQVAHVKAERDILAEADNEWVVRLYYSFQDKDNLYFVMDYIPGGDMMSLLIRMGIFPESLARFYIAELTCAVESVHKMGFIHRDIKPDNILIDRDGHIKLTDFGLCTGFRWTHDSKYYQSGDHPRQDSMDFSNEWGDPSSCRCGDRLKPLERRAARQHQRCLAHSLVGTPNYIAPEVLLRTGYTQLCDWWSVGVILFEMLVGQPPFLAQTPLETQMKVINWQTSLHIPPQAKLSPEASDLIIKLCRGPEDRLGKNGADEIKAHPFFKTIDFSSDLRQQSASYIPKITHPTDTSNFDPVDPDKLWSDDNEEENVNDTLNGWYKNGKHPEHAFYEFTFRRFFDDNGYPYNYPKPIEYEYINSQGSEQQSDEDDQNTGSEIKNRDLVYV
Description: IVKA assay at 10 uM method:
(§1) Reactions were conducted with 10 μM STK1 substrate and 10 μM ATP or 2 mM ATP as shown below. […] The enzyme, substrate, ATP, and test compound of the invention were combined in a low-volume 384-well plate and shaken for 50 min at room temperature, unless otherwise indicated. The reaction was stopped by adding the detection reagents, which were prepared at an 8:1 biotin:streptavidin ratio and shaking for 60 min at room temperature. All reactions were conducted in triplicate and a Synergy NEO (Biotek) was used to detect the signal.

Lats1 [2] = target: T1, Lats1; assay: In vitro kinase assay (HTRF KinEASE-STK S1) Lats1, 2 mM ATP; format: biochemical; settings: read-out: LATS1_HTRF_2 mM ATP IC50
Description: as §1
Assay was carried out in a 384 well plate. Each drug dosage curve was done with 16 points of 3-fold dilutions in 100% DMSO, and triplicate.

O=C(/N=c1\sccn1CC1CCCCC1)c1c[nH]c2ncccc12 [T55]
IC50 (Lats1 [1]): 2 nM
IC50 (Lats1 [2]): 4.9 nM
